# scFv variants of Ab-95 (light chain) against a SARS-CoV-2 spike peptide

Target: peptide PDVDLGDISGINAS, taken from heptad repeat 2 (HR2) of SARS-CoV-2 spike.

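AAYL52 was designed without a model: most single CDR substitutions and a random sample of double and triple ones. The scFvs were displayed on barcoded MATa yeast, the peptide on MATalpha yeast. Pairs that bind mate more often; barcode pairs of the diploids are counted by sequencing. The ratio of observed to expected reads was calibrated, replicate by replicate, on BCL2-family standards whose Kd was known from biolayer interferometry. Each pool was mated in three replicate cultures.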

Each scFv is VH, a (GGGGS)3 linker, VL, as in the parent Ab-95, and differs from it in the CDRs of the light chain only.
VH: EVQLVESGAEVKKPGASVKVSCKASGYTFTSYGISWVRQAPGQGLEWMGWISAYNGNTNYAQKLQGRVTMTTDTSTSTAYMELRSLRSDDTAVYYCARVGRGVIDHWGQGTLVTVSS
VL: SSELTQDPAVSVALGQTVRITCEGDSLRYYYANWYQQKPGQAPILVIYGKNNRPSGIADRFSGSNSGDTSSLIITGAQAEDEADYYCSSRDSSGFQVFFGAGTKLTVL

Substitutions are numbered in sequence along the VL above, starting at 1 (not Kabat). The read-out is the apparent dissociation constant on a log10 scale (nM): the lower, the stronger. Where no diploid with the target was found in that replicate, the entry reads "ND": below detection, most likely a poor binder, though not proof of it. For reference, the parent read 2.31 as the reference entry and 2.25 as a member of this library. Background: pairings of library AAYL52 with three empty control strains gave a value in 28% of cases (median 3.91, 5th percentile 2.90). Values in that range, when seen in few replicates, are hard to tell from nonspecific mating. Also given: how often the same scFv was detected with the empty control strains, with their mean in brackets.

| # | changes | log10 Kd, replicates | signal with controls |
|---|---|---|---|
| 1 | Y29C/S92R/S93Y | 5.05 / 3.43 / 2.92 | 3 of 9 (4.64) |
| 2 | L27K/Y29T/S93D | 4.62 / ND / 4.25 | 5 of 9 (3.73) |
| 3 | N33H/S93F | 3.60 / ND / 2.94 | 5 of 9 (4.10) |
| 4 | A32Y/K50A | ND / ND / ND | 0 of 9 |
| 5 | Y30M/N51W/R90S | 5.57 / 5.64 / ND | 3 of 9 (3.78) |
| 6 | R28W/A32D/K50T | 5.20 / 3.75 / ND | 1 of 9 (3.75) |
| 7 | Y29K/G49K/S89M | 4.26 / ND / 2.92 | 2 of 9 (4.15) |
| 8 | L27E/N51D/P54I | 3.75 / 4.73 / ND | 1 of 9 (3.50) |
| 9 | E23W/Y29L/F95M | 3.82 / 3.20 / 3.09 | 2 of 9 (3.94) |
| 10 | S26A/K50E/F98W | 2.11 / 1.61 / 1.56 | 3 of 9 (3.37) |
| 11 | A32E/N51V/R90A | 4.40 / ND / ND | 4 of 9 (4.25) |
| 12 | D25R/G49Y/N52R | 3.79 / ND / ND | 5 of 9 (3.93) |
| 13 | R90H/S92H | 2.38 / 2.18 / 1.43 | 4 of 9 (3.48) |
| 14 | S93I/Q96N | 3.17 / 3.05 / 3.10 | 1 of 9 (4.98) |
| 15 | S26W/S92W/V97F | 4.63 / 3.51 / ND | 3 of 9 (3.90) |
| 16 | R28W/A32Q/R90A | ND / 4.28 / ND | 2 of 9 (3.92) |
| 17 | Y31K/S55E/D91H | 3.57 / 3.20 / 3.32 | 4 of 9 (3.64) |
| 18 | L27E/Y30E/Q96P | 2.69 / 2.59 / 2.19 | 3 of 9 (3.27) |
| 19 | K50V/N51E/Q96A | 3.38 / 4.11 / ND | 4 of 9 (3.62) |
| 20 | E23I/L27H/R28M | 3.48 / 3.85 / 3.79 | 5 of 9 (3.81) |
| 21 | R28Y/R90T/F98H | ND / 4.50 / 4.52 | 0 of 9 |
| 22 | R28K/G49F/S92H | 5.60 / 4.20 / 3.54 | 5 of 9 (3.50) |
| 23 | A32W/N52D/S89R | 3.72 / ND / ND | 3 of 9 (4.97) |
| 24 | D25L/A32V/D91W | 2.90 / 2.34 / 3.13 | 1 of 9 (3.50) |
| 25 | L27A/S92V/F98H | 2.65 / 4.01 / 3.37 | 3 of 9 (3.83) |
| 26 | N33Q/N51H/R90T | ND / ND / ND | 0 of 9 |
| 27 | G49C/R53L/S88T | ND / ND / ND | 0 of 9 |
| 28 | L27A/A32C | 3.21 / 4.33 / 3.25 | 5 of 9 (4.02) |
| 29 | E23V/D25N/Y29W | 3.27 / 3.02 / 2.80 | 3 of 9 (4.04) |
| 30 | G24Y/S93G/G94I | 5.43 / 3.68 / ND | 1 of 9 (4.64) |
| 31 | N33Y/R53M/R90W | ND / ND / ND | 1 of 9 (3.24) |
| 32 | S26G/N51T/D91Y | 4.50 / ND / ND | 5 of 9 (4.30) |
| 33 | E23I/D25H | 2.96 / 3.25 / 2.91 | 2 of 9 (4.14) |
| 34 | G24I/D91T/S93C | ND / ND / ND | 3 of 9 (2.90) |
| 35 | S26G/K50W/S55C | 3.72 / ND / ND | 5 of 9 (3.73) |
| 36 | G49C/S92H | 4.26 / ND / ND | 3 of 9 (3.36) |
| 37 | G24F/K50I/V97I | 4.38 / ND / 4.19 | 4 of 9 (4.65) |
| 38 | K50L/R53F | 4.53 / 4.17 / ND | 3 of 9 (4.01) |

A selection of 5 entries from above:

| changes | log10 Kd, replicates | signal with controls |
|---|---|---|
| G24I/D91T/S93C | ND / ND / ND | 3 of 9 (2.90) |
| R28K/G49F/S92H | 5.60 / 4.20 / 3.54 | 5 of 9 (3.50) |
| G24F/K50I/V97I | 4.38 / ND / 4.19 | 4 of 9 (4.65) |
| R90H/S92H | 2.38 / 2.18 / 1.43 | 4 of 9 (3.48) |
| Y30M/N51W/R90S | 5.57 / 5.64 / ND | 3 of 9 (3.78) |

The measurements come from Engelhart et al. 2022 (doi:10.1038/s41597-022-01779-4) through the FLAb antibody collection.